Data published in ChEMBL document CHEMBL3763146 (J Med Chem, 2016).

Organism: Homo sapiens
Test: Selectivity ratio of IC50 for human SERT to EC50 for human adrenergic beta3 receptor

Ratio IC50/EC50: > 800
Compound: C[C@@H](C(=O)Nc1ccc(C[C@@H]2CC[C@H]([C@H](O)c3ccccc3)N2)cc1)n1ncccc1=O
